# Source: PubChem BioAssay AID652025 (National Center for Advancing Translational Sciences (NCATS), 2013)
# Only a part is listed here, and it is no random draw. Calls of active or inactive are those of the source. No stated cut-off is given here; in the data, active means activation above about 50%; inconclusive means mostly about 30% to 49%; inactive means weaker than that.
# Assay: qHTS of IL-2 Activators; further: 0% is about no effect
# Details: IL-2 activation reporter assay, cell-based qHTS; stronger effect = higher value; in transgenic mouse T cells; stimulated with anti-CD3/CD4/CD28 beads
# Description: The adaptive immune response against any infectious agent begins with the activation of an antigen specific T cell. This relatively rare and inert ("naive") T cell undergoes a massive proliferative expansion and differentiation process to generate sufficient number of potent pathogen-specific effector T cells. The effector T cells fight the infection by making cytokines and helping other cells to become fully armed as well. If any naive T cell has antigen receptors (TCRs) that can be activated by self peptides, then a variety of regulatory mechanisms kick in to prevent this cell from performing to its full potential. These processes collectively constitute the phenomenon of immunological tolerance and their failure leads to autoimmunity. One arm of tolerance involves generation of biochemical negative feedback downstream of the TCR (tuning). This is especially relevant to self antigens present in the body over long periods of time (chronic), which form the bulk of our proteome. The negative feedback serves to tune the TCR signaling, such that the ambient antigenic stimulation is nullified intracellularly. Unfortunately, this critical machinery serves as a target for chronic viral, bacterial and parasitic infections (as well as tumors), which can evade a robust immune response, simply by allowing T cells to tune down their signaling to pathogen or malignancy derived antigens. As such, disrupting the tuning in such cases would allow the tolerant T cell to function again and deliver a robust effector response.
# If a therapeutic can restore responsiveness to the tuned down T cell, even for a short time, they could combat the pathogen without any additional immunization. To that end, we have developed a sensitive HTS T cell based assay based on IL-2. This assay will be screened against the Molecular Libraries Small Molecule Repository (MLSMR) to find small molecules that could elicit this response.
# NIH Chemical Genomics Center [NCGC]
# NIH Molecular Libraries Probe Centers Network [MLPCN]
# Assay Submitter (PI): Ron Schwartz, NIAID
# 4 microL (750 cells/well) of unstimulated transgenic mouse T cells (columns 1-3,5-48) are dispensed into Aurora LoBase, black clear-bottom 1536-well assay plates; column 4 receives an identical concentration of transgenic memory T cells as a non-tolerant control. Compounds are then transferred via Kalypsys pin tool equipped with 1536-pin array (10 nL slotted pins, V&P Scientific, San Diego, CA). Following addition of compound and a 60 minute incubation, 1 microL of bead stimulation solution ((0.04 micron Fluospheres (Life technologies, CA) coated with 10ug/ml each anti-CD3 and anti-CD4 (clones 2C11 and GK1.5, BD Biosciences, CA) and mixed with 1ug/ml anti-CD28 (clone PV-1, BD biosciences, CA)). columns 2-48) is added to stimulate the IL-2 response pathway; media is instead added to column 1 as an unstimulated control, while PMA/ionomycin (Sigma Aldrich, MO) is added to column 3 as a control for IL-2 tolerance bypass. The plates are then incubated at 37 degrees C for 18 hours. EGFP and DsRed signal are then detected using an Acumen eX3 Explorer fluorescent plate cytometer. All cells are dispensed in cell media containing EHAA (Quality Biologicals, MD), RPMI (Quality Biologicals, MD), Glutamine (Life Technologies, CA), Penicillin/Streptomycin (Quality Biologicals, MD), 2-ME (Sigma Aldrich, MO) and 10% FBS (Gemini Bioproducts, CA) .
row,SMILES,activation
1,CSc1ccccc1C(=O)NCC1(N2CCCCC2)CCCCC1,inactive: 0.921%
2,Cc1cccc(NC2(C#N)CCN(Cc3ccccc3)CC2)c1,inactive: 0.526%
3,COc1ccc(C(=O)NCC2(N3CCCCC3)CCCCC2)cc1,inactive: 2.5%
4,CC(C)(C)OC(=O)N1CCC(N(C(=O)c2ccccc2)c2ccc(F)cc2)CC1,inactive: 0.905%
5,COc1ccc(C(=O)NCC2(N3CCCCC3)CCCCC2)c(OC)c1OC,inactive: -4.1%
6,CCC(c1nnnn1C1CCCC1)N1CCC(n2c(=O)[nH]c3ccccc32)CC1 (configuration not stated),inactive: -0.0145%
7,O=C(NCC1(N2CCCCC2)CCCCC1)c1ccc(=O)[nH]c1,inactive: -2.44%
8,O=C(NCC1(N2CCCCC2)CCCCC1)c1cccs1,inactive: 0.059%
9,CCCCn1nnnc1C(CC)N1CCC(n2c(=O)[nH]c3ccccc32)CC1 (configuration not stated),inactive: 0.353%
10,CCCCn1nnnc1C(c1cccs1)N1CCC(n2c(=O)[nH]c3ccccc32)CC1 (configuration not stated),inactive: -0.376%
11,N#CC1(Nc2ccccc2)CCN(Cc2ccccc2)CC1,inactive: -0.5%
12,O=C(NCC1(N2CCCCC2)CCCCC1)c1ccc(Cl)s1,inactive: -3.87%
13,O=C(OC1CN2CCC1CC2)C1c2ccccc2Oc2ccccc21 (configuration not stated),inactive: -0.641%
14,O=c1[nH]c2ccccc2n1C1CCN(C(c2cc3ccccc3o2)c2nnnn2C2CCCCC2)CC1 (configuration not stated),inactive: 0.987%
15,COc1ccc(Cl)cc1C(=O)NCC1(N2CCOCC2)CCCCC1,inactive: -3.77%
16,O=C1C(O)=C([N+](=O)[O-])C(=O)C(O)=C1[N+](=O)[O-],inactive: 1.66%
17,CCOC(=O)N1CCC(Nc2ccc(OC)cc2)CC1,inactive: 3.05%
18,CCCCn1nnnc1C(c1ccc(OC)cc1)N1CCC(n2c(=O)[nH]c3ccccc32)CC1 (configuration not stated),inactive: -0.111%
19,O=C(NCC1(N2CCCCC2)CCCCC1)c1ccc(Cl)nc1,inactive: 0.896%

row,SMILES,activation
1,O=c1[nH]c2ccccc2n1C1CCN(C(c2ccccc2OC(F)(F)F)c2nnnn2C2CCCCC2)CC1 (configuration not stated),inactive: -0.687%
2,Cc1cc(C)cc(N(C(=O)c2ccccc2)C2CCN(C(=O)OC(C)(C)C)CC2)c1,inactive: -0.598%
3,O=C(NCC1(N2CCOCC2)CCCCC1)c1cc2ccccc2o1,inactive: -0.266%
4,O=P1(N(CCCl)CCCl)SCCCS1,inactive: 0.179%
5,CCCCn1nnnc1C(c1cc2ccccc2o1)N1CCC(n2c(=O)[nH]c3ccccc32)CC1 (configuration not stated),inactive: 0.318%
6,CCCCOc1ccc(C(=O)NCC2(N3CCOCC3)CCCCC2)cc1,inactive: 0.12%
7,O=C(NCC1(N2CCCCC2)CCCCC1)c1ccc(F)cc1,inactive: -0.424%
8,COc1ccc(NC2CCN(CCc3ccccc3)CC2)c(OC)c1,inactive: -1.34%
9,CCOC(=O)N1CCC(Nc2ccc(F)cc2)CC1,inactive: 0.119%
10,CC(C)(C)n1nnnc1C(c1ccccc1)N1CCC(n2c(=O)[nH]c3ccccc32)CC1 (configuration not stated),inactive: 0.515%
11,O=C1CCN(Cc2ccccc2)CC1,inactive: -0.0607%
12,CCOc1ccc(C)cc1CN(CCCl)CCCl,inactive: -0.908%
13,CCOC(=O)N1CCC(Nc2cccc(C)c2)CC1,inactive: 2.19%
14,COc1cc(C(=O)NCC2(N(C)C)CCCCC2)ccc1OC(F)F,inactive: 0.695%
15,O=c1[nH]c2ccccc2n1C1CCN(C(c2cccc3ccccc23)c2nnnn2C2CCCC2)CC1 (configuration not stated),inactive: -0.655%
16,O=c1[nH]c2ccccc2n1C1CCN(C(c2ccccc2)c2nnnn2C2CCCCC2)CC1 (configuration not stated),inactive: 0.884%
17,CCN1CCC(Nc2ccc(Cl)cc2)CC1,inactive: 1.22%
18,O=c1[nH]c2ccccc2n1C1CCN(C(c2ccccc2OC(F)(F)F)c2nnnn2C2CCCC2)CC1 (configuration not stated),inactive: -0.27%
19,N#CC1(Nc2ccccc2)CCN(CCc2ccccc2)CC1,inactive: -0.0177%

row,SMILES,activation
1,CSc1ccc(C(=O)NCC2(N3CCOCC3)CCCCC2)cc1,inactive: -1.37%
2,O=C(NCC1(N2CCCCC2)CCCCC1)c1cccc([N+](=O)[O-])c1,inactive: -0.0293%
3,CC(C)(C)n1nnnc1C(c1ccccc1OC(F)(F)F)N1CCC(n2c(=O)[nH]c3ccccc32)CC1 (configuration not stated),inactive: -0.382%
4,O=C(NCC1(N2CCCCC2)CCCCC1)c1ccc(OC(F)F)cc1,inactive: -0.731%
5,COc1cc(C(=O)NCC2(N3CCCCC3)CCCCC2)ccc1OC(F)F,inactive: -3.24%
6,O=C(NCC1(N2CCOCC2)CCCCC1)c1cc(=O)[nH]c2ccccc12,inactive: 0.24%
7,CN1CCN(CCOC(=O)C(O)(c2ccccc2)c2ccccc2)CC1,inactive: 0.123%
8,CC(C)c1ccc(C(=O)NCC2(N3CCOCC3)CCCCC2)cc1,inactive: -4.98%
9,COc1ccc(NC2CCN(C(=O)OC(C)(C)C)CC2)cc1,inactive: 1.87%
10,CCCCn1nnnc1C(c1cccc2ccccc12)N1CCC(n2c(=O)[nH]c3ccccc32)CC1 (configuration not stated),inactive: 0.324%
11,O=[N+]([O-])c1cc([N+](=O)[O-])c(NCC2CCS(=O)(=O)C2)c([N+](=O)[O-])c1 (configuration not stated),inactive: -5.52%
12,O=C(NCC1(N2CCCCC2)CCCCC1)c1cccc(C(F)(F)F)c1,inactive: -0.513%
13,COc1cc(OC)c(C(=O)NCC2(N(C)C)CCCCC2)cc1OC,inactive: 2.82%
14,O=C(NCC1(N2CCOCC2)CCCCC1)c1cc(F)c(F)cc1Cl,inactive: 0.732%
15,CCC(c1nnnn1C(C)(C)C)N1CCC(n2c(=O)[nH]c3ccccc32)CC1 (configuration not stated),inactive: 1.3%
16,CCN(CC)CCCNc1ccccc1[N+](=O)[O-].O=[N+]([O-])c1cc([N+](=O)[O-])c(O)c([N+](=O)[O-])c1,inactive: 0.981%
17,CCCCn1nnnc1C(c1ccnc2ccccc12)N1CCC(n2c(=O)[nH]c3ccccc32)CC1 (configuration not stated),inactive: -0.129%
18,CC(C)c1ccc(NC2CCN(C(=O)OC(C)(C)C)CC2)cc1,inactive: -0.633%
19,CCCCn1nnnc1C(c1ccccc1OC(F)(F)F)N1CCC(n2c(=O)[nH]c3ccccc32)CC1 (configuration not stated),inactive: -0.716%
